## OPERA 2.9 data: fraction unbound values

From the experimental data distributed with OPERA 2.9.

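The numbers are reported measurements, compiled and curated for the OPERA QSAR suite. The files give a single number for a compound and property, which may rest on several reports. Method and conditions are not stated for these values. Where a salt, mixture or single isomer is drawn, the source does not say that exactly this form was tested. Some upstream entries may be estimates or bounds without being marked so.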

The unbound fraction in human plasma runs from 0 (all bound) to 1 (all free).

structure (SMILES)	plasma fu
CN1C[C@H](C(=O)N[C@]2(C)O[C@@]3(O)[C@@H]4CCCN4C(=O)[C@H](Cc4ccccc4)N3C2=O)C=C2c3cccc4[nH]cc(c34)C[C@H]21	0.02833
CNC1(c2ccccc2Cl)CCCCC1=O (centres undefined)	0.6763
Clc1ccc2c(c1)C(c1ccccc1)=NCc1nncn1-2	0.07
C=CC#N	0.8632
COCc1cnc(C2=NC(C)(C(C)C)C(=O)N2)c(C(=O)O)c1 (centres undefined)	0.4541
C#CCOS(=O)OC1CCCCC1Oc1ccc(C(C)(C)C)cc1 (centres undefined)	0.0133
CCC1(c2ccccc2)C(=O)NC(=O)N(C)C1=O (centres undefined)	0.5
COc1cccc(C(=O)NN(C(=O)c2cc(C)cc(C)c2)C(C)(C)C)c1C	0.06087
Oc1ccc(Cl)cc1Cc1ccccc1	0.001252
O=[N+]([O-])c1ccc(O)c([N+](=O)[O-])c1	0.02723
Oc1ccc(Cl)cc1Cl	0.23
O=C(CCl)Nc1ccccc1	0.401
COC(=O)Nc1nc2ccccc2[nH]1	0.4633
COc1ccc2c(c1)[C@]13CCCC[C@@H]1[C@H](C2)N(C)CC3	0.53
ClC1=C(Cl)[C@@]2(Cl)[C@H]3[C@H](Cl)[C@@H]4O[C@@H]4[C@H]3C1(Cl)C2(Cl)Cl	0.01068
CCCCN(CCCC)N=O	0.2602
C/C(=CC(=O)OC(C)C)/OP(=S)(NCC)OC (stereo partly drawn)	0.01148
S=c1[nH]c2ccccc2[nH]1	0.4
CC(C)[C@@H](C(=O)O[C@@H](C#N)c1cc(ccc1)Oc1ccccc1)c1ccc(Cl)cc1	0.001118
CN(C)C(=O)Nc1ccc(Cl)cc1	0.4551
CC(c1ccc(O)cc1)(c1ccc(O)cc1)c1ccc(O)cc1	0.0141
CC(=O)O[C@H]1C[C@H](O[C@H]2[C@@H](O)C[C@H](O[C@H]3[C@@H](O)C[C@H](O[C@H]4CC[C@@]5(C)[C@H](CC[C@@H]6[C@@H]5C[C@@H](O)[C@]5(C)[C@@H](C7=CC(=O)OC7)CC[C@]65O)C4)O[C@@H]3C)O[C@@H]2C)O[C@H](C)[C@H]1O	0.75
C=CCC1=C(C)C(OC(=O)C2C(C=C(C)C)C2(C)C)CC1=O (centres undefined)	0.29
CCCCCCCCOC(=O)c1ccccc1C(=O)OCCCCCCCC	0.0233
C[C@]12C=CC(=O)C=C1CC[C@@H]1[C@@H]2CC[C@]2(C)OC(=O)CC[C@@H]12	0.15
CCCSC(=O)N(CCC)CCC	0.01906
CC(C)Oc1cc(-n2nc(C(C)(C)C)oc2=O)c(Cl)cc1Cl	0.00307
CCN(CC)C(=O)N[C@H]1C=C2c3cccc4[nH]cc(c34)C[C@H]2N(C)C1	0.3
CC(C)(c1ccccc1)c1ccc(O)cc1	0.0231
C[C@]12CCC(=O)C=C1C=C[C@@H]1[C@@H]2CC[C@@]2(C)[C@H]1CC[C@@]2(O)CCC(=O)O	0.06
CNC(=O)Oc1cccc(N=CN(C)C)c1.Cl	0.8859

5 of these entries, quoted again:

{"smiles": "ClC1=C(Cl)[C@@]2(Cl)[C@H]3[C@H](Cl)[C@@H]4O[C@@H]4[C@H]3C1(Cl)C2(Cl)Cl", "plasma fu": "0.01068"}
{"smiles": "COc1ccc2c(c1)[C@]13CCCC[C@@H]1[C@H](C2)N(C)CC3", "plasma fu": "0.53"}
{"smiles": "Oc1ccc(Cl)cc1Cl", "plasma fu": "0.23"}
{"smiles": "CCN(CC)C(=O)N[C@H]1C=C2c3cccc4[nH]cc(c34)C[C@H]2N(C)C1", "plasma fu": "0.3"}
{"smiles": "Oc1ccc(Cl)cc1Cc1ccccc1", "plasma fu": "0.001252"}